Laboratory results published in ChEMBL document CHEMBL1127818, “Identification of L-tryptophan derivatives with potent and selective antagonist activity at the NK1 receptor” (J Med Chem, 1994).

The chains behind the UniProt entries cited, without tags or fusion partners.
UniProt P25103, whole entry: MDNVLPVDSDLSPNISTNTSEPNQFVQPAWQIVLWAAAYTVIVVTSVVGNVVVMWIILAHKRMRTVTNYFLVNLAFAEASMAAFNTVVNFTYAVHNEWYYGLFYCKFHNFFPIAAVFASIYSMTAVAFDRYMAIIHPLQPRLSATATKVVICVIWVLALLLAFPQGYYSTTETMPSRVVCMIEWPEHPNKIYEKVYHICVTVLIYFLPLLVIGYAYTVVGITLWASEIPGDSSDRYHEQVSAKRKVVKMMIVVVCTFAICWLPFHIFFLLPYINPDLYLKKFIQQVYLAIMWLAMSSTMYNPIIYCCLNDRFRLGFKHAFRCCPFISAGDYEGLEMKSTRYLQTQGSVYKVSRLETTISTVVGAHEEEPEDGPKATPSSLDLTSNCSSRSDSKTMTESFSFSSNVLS

Molecular target: Substance-P receptor (Homo sapiens, UniProt P25103)
Experiment: Binding affinity towards cloned neurokinin 1 receptor, based on the displacement of [125I]-labeled substance P

O=C(N[C@@H](Cc1c[nH]c2ccccc12)C(=O)OCc1ccccc1Cl)c1ccccc1
IC50: 600 nM
